Results: US6642247B2 (priority 1998, dated 2003)

Amino acid sequences for entries named in this document (tags omitted). A change or cut given only in a name is not applied to a line headed by its entry.
UniProt P35370: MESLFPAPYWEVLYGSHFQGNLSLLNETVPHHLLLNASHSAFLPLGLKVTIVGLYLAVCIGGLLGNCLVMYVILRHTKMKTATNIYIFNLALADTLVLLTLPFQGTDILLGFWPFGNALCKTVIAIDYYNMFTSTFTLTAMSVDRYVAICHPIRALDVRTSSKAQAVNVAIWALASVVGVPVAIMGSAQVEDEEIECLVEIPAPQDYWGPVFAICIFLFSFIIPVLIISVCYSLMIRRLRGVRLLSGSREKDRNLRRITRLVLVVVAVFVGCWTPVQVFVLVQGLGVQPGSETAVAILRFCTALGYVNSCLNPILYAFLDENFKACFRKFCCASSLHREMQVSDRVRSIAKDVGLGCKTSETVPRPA

Target: rat OFQ receptor (LC132) (Rattus norvegicus, UniProt P35370)
Assay: OFQ-R binding assay ([3H]-OFQ competition, 293s-OFQ-R membranes)
Details: IC50 converted to Ki by Cheng and Prusoff

| Structure (SMILES) | affinity to the OFQ-receptor, given as pKi |
| --- | --- |
| Cl.c1ccc(N2CCCC23CCN(C2Cc4cccc5cccc2c45)CC3)cc1 (racemic) | 8.6 |
| CC(C)[C@H]1CC[C@@H](N2CCC3(CC2)C(=O)CCN3c2ccccc2)CC1.Cl (relative stereo) | 9.4 |
